According to patent US10308637B2 (LifeSci Pharmaceuticals, Inc., priority 2015, dated 2019):

Assay: Contact Assay (percentage inhibition from fluorescence intensity)
Format: biochemical
Experimental: The percentage inhibition was calculated using the following equation:
[formula] where, Mean(BG) is the average value of the fluorescence intensity of the background wells and Mean(PC) is the average value of the fluorescence intensity of the positive control wells.
Table 4 provides the EC50 values of various compounds disclosed herein.

## Cc1cc(N)nc(C)c1CNC(=O)c1ccnc(Cc2cc(C(N)=O)c3ncc(Cl)cc3c2)c1 [Example 58, 6-((4-(((6-amino-2,4-dimethylpyridin-3-yl)methyl)carbamoyl)pyridin-2-yl)methyl)-3-chloroquinoline-8-carboxamide]
  EC50: ≤ 100 nM
